Data: patent publication US11744873B2, “Compositions and methods for the treatment of metabolic and liver disorders” (Viking Therapeutics, Inc., priority 2021, dated 2023)

What was measured:
[1] = target: T1, GIP receptor (Homo sapiens, UniProt P48546); test: HSA modulated binding assay, GIP receptor; details: binding with 2% HSA to binding with 0% HSA
T1 sequence (P48546 22-466): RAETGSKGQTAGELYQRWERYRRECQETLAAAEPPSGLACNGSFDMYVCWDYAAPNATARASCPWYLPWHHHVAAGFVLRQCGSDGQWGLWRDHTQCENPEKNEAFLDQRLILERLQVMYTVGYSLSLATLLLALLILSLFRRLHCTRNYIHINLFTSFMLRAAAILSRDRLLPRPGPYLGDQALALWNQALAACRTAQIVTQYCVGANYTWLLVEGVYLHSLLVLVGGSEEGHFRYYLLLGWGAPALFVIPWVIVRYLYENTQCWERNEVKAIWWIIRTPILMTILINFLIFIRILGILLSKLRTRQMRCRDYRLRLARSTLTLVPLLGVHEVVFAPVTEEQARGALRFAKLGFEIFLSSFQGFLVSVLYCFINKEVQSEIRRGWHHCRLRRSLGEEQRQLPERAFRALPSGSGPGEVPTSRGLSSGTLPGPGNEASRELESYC

[2] = system: mice fed Gubra amylin NASH (GAN) diet; test: Biological effects in GAN diet NASH mice; format: in vivo; details: after two weeks, 10 mg/kg group
Experimental: NASH was induced in mice by feeding mice a Gubra amylin NASH (GAN) diet as described in Boland et al. World J Gastroenterol. 2019, 25(33): 4904-4920. One week prior to administration of a first dose of compounds, the mice were weighed and randomized, and their food intake was measured. Mice were randomly assigned to dosing groups, with twelve mice per group. […] Compound dose titration (nmol/kg): 0.6 (day 0), 1.2 (day 1), 2.4 (day 2), 4.8 (day 3), 4.8 (day 4), 12 (day 5), 30.0 (from day 6).
After two weeks, animals were sacrificed. Plasma enzymes (P-ALT (alanine aminotransferase) and P-AST (aspartate aminotransferase)), total plasma triglycerides, and total plasma cholesterol were measured, and terminal necropsy of each liver was carried out, determining relative liver weight as a percentage of body weight, assaying total liver biochemistry including total liver triglycerides, plasma insulin and total liver cholesterol, as well as histological evaluation of Galectin-3, and alpha-smooth muscle actin.

## tirzepatide [reference compound]
[1]
  Ratio of HSA/No HSA: 5.82
[2]; liver Galectin-3, histological quantitative assessment
  Gal-3 Relative: 6.7 ± 0.5 percent fractional area
[2]; liver triglycerides, GAN diet NASH mice
  TG Relative: 42 ± 6 mg per/ g liver
[2]; liver α-smooth muscle actin, histological quantitative assessment
  α-SMA Relative: 5.3 ± 0.8 percent fractional area
